## AlphaSeq binding of Ab-14 light chain variants to a spike HR2 peptide

Values reported by Engelhart et al. 2022, doi:10.1038/s41597-022-01779-4 (FLAb copy).

The target is the same throughout: PDVDLGDISGINAS, from the HR2 region of SARS-CoV-2 spike.

Parent: Ab-14, a human scFv built as VH, a (GGGGS)3 linker, VL. Only the CDRs of the light chain vary.
VH: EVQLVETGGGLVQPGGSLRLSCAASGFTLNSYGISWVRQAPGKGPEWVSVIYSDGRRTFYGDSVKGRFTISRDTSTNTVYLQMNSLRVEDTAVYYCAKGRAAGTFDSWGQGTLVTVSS
VL: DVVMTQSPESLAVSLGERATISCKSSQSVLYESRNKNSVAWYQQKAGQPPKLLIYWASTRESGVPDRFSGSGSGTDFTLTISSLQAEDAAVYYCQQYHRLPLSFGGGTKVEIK

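The parent was found by panning a naive human phage display library on the peptide. AAYL50 was designed without a model: most single CDR substitutions and a random sample of double and triple ones. In AlphaSeq, yeast of one mating type display the scFv and yeast of the other type display the target. After mating in shaken culture at 30 °C for 16 h, diploids were selected and their barcode pairs sequenced. Each replicate has its own calibration line, from reference interactions of the BCL2 family. The assay was run in three technical replicates.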

Changes read parent residue, position, new residue, counted from the first residue of the VL shown.
Kd is apparent (estimated from mating counts) and averaged on the log scale over replicates with a signal. Smaller is tighter.
"nd" means that the variant was in the library but no mating with the target was seen in any replicate; the authors take this as a sign of poor binding, and no number exists.
As a blank, each scFv also met three strains without target: over library AAYL50, 18% of these pairings were detected, typically at 15 µM and seldom below 970 nM.
For reference, the parent read 4.4 nM as the reference entry and 48 nM as a member of this library.

changes	apparent Kd	detected
V29G/Y31V/L102A	24 nM	3/3
Q27L/L30Q/W56P	nd	0/3
S28N/W56I/L100T	nd	0/3
N35M/A40G/H98I	110 µM	2/3
Q27E/L30R/K36Y	16 nM	3/3
S25E/S28M/L102S	7.3 µM	1/3
E32I/N35P/S38L	19 µM	3/3
S25P/Q95N/S103G	nd	0/3
Y97G/H98G/P101S	910 nM	2/3
K24C/R34H/N35C	350 nM	3/3
S33D/A57I/L100P	210 nM	2/3
S38D/A57T/H98C	6.0 µM	2/3
Q27H/S28W/E61L	15 nM	3/3
K24A/Y97R/L100A	970 nM	1/3
R34M/S58P/Q95L	nd	0/3
K24S/L30S/H98I	27 nM	3/3
V29A/K36F/V39S	nd	0/3
K36Q/E61Y/L100Y	41 nM	3/3
E32K/W56C/S103H	1.9 µM	3/3
K36F/N37I/A57W	750 nM	1/3
W56H/Q95D/R99T	15 nM	3/3
T59E/R60G/R99A	930 nM	1/3
N35K/P101C/L102T	510 nM	1/3
Q27Y/R34Q/Q95D	nd	0/3
K36F/W56L/S62M	8.5 nM	3/3
S38P/R60I	nd	0/3
W56G/S62H/Q96S	840 pM	3/3
V29D/K36H	11 nM	3/3
K24L/A40V/Q96L	nd	0/3
L30A/S103H	22 nM	3/3
S26G/Q96F/P101E	nd	0/3
K36N/A57M/Q96S	3.4 µM	2/3
E32Y/K36R/A57I	52 µM	1/3
S26G/Q95H/S103P	nd	0/3
E32L/S33H/T59D	57 nM	3/3
R34N/E61P/S103A	770 pM	3/3
S25A/L30C/S62N	5.4 nM	3/3
E32C/R34N/E61F	16 µM	2/3
V29M/L30G/V39L	12 nM	3/3
Q27D/T59R/R99N	28 nM	3/3
A57T/R60V/P101L	nd	0/3
N35R/R99P	110 nM	3/3
L30H/S58I/P101K	230 nM	2/3
S38A/T59W/S103H	150 nM	2/3
L30H/A57H/E61F	76 µM	1/3
A57G/T59F	17 nM	3/3
S28P/W56F/E61I	16 nM	3/3
S33W/S38P/A57I	4.9 µM	1/3
E32L/H98Y/L102G	nd	0/3
L30S/H98C	60 nM	3/3
S26L/S38V/Q96K	nd	0/3
Y31D/W56E/S62R	1.4 nM	3/3
S26H/N37Y/R99F	150 nM	3/3
S58Q/S62F/Q95W	nd	0/3
V29C/L30A/Q96K	nd	0/3
Y31R/N37H/A40C	2.0 µM	1/3
S25A/R60G/S62D	1.4 µM	3/3
S26L/Y97G/L100R	5.2 µM	1/3
S25N/V29M/S58P	33 µM	2/3
Y31T/W56G/L102Y	200 nM	3/3
L30A/L100A/P101H	nd	0/3
S33N/S38N/T59G	5.9 µM	2/3
S38T/S62T/P101C	nd	0/3
H98K/R99Y/P101V	200 nM	1/3
E32N/S38N/S58C	190 nM	3/3
N35K/A40G/H98G	1.7 µM	2/3
V29W/Q96L/P101R	nd	0/3
S25A/V29K/T59G	5.8 µM	1/3
S38C/Q96E/R99F	nd	0/3
T59W/Q95I/R99A	40 nM	3/3
S33Q/E61L/S62N	18 nM	3/3
S33W/S38C/Y97C	17 µM	2/3
Q27D/Y31R/E32Y	28 nM	3/3
S28M/E32H/T59A	1.2 µM	2/3
Q27T/N37T/R99F	1.3 µM	3/3
K36E/W56M/R60S	160 nM	3/3
K24R/R60D/P101W	nd	0/3

For reference, 4 entries of the list once more:

| changes | apparent Kd | detected |
|---|---|---|
| S33W/S38C/Y97C | 17 µM | 2/3 |
| E32K/W56C/S103H | 1.9 µM | 3/3 |
| S33N/S38N/T59G | 5.9 µM | 2/3 |
| Q27Y/R34Q/Q95D | nd | 0/3 |